The values that follow come from patent publication EP1016405A2, “Arylating medicaments” (Radopath Pharmaceuticals International Limited, priority 1993, dated 1994).

This test has as its system MAC15A (murine adenocarcinoma colon). As to the kind of experiment: Anti-tumour activity against MAC15A ascites tumour, survival T/C%. It counts as in vivo, mice. Conditions: median survival, test vs solvent control, 100 mg kg^-1 ip per day.

Marks after values point to notes of the source that are not given here.

In the case of `O=[N+]([O-])c1cc([N+](=O)[O-])c(S(=O)(=O)O)c([N+](=O)[O-])c1`, the T/C% (schedule days 1,2,3,4,5) came out at 188%.
Where the note is “schedule days 1,2”, `O=[N+]([O-])c1ccc([N+](=O)[O-])cc1` gave a T/C% of 200%.
Consider 1-flouro-2,4-dinitrobenzene, for which the T/C% (schedule day 1) is 62.5^b %.
